# Test results from PubChem BioAssay AID743255 (National Center for Advancing Translational Sciences (NCATS), 2014).
# The chains behind the UniProt entries cited, without tags or fusion partners.
# UniProt O94782, whole entry, looked up: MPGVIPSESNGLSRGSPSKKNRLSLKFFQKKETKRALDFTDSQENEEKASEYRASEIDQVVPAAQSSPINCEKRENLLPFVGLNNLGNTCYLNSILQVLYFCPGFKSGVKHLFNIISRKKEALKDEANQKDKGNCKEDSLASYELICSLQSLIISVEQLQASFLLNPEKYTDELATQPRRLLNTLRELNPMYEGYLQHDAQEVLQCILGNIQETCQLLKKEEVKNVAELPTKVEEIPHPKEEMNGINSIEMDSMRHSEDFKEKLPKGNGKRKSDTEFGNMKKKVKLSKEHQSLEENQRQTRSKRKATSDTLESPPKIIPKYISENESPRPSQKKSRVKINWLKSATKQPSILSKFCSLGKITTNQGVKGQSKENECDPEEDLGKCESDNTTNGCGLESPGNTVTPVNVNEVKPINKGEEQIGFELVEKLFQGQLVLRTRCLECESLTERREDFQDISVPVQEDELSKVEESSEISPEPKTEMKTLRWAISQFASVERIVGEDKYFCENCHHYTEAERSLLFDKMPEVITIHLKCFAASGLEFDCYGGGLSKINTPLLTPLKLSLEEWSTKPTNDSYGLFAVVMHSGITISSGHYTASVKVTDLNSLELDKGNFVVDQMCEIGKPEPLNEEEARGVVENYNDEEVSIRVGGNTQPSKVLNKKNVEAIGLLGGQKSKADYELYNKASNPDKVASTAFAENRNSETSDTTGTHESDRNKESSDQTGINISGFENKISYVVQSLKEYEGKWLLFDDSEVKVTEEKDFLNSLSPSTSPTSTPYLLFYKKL
# This is a selection; strong and weak results do not stand in their true shares. Some tests of the compounds listed are not included; inactive here does not mean inactive elsewhere. Inconclusive results are not listed. The source made the active and inactive calls. The call rests on the fitted dose curve; in most records, active means well fitted inhibition curve with a large enough effect; inconclusive means small, poorly fitted or top-dose-only effect; inactive means no such curve, though single readings can be large or run the other way.
# Biological target: Ubiquitin carboxyl-terminal hydrolase 1 (Homo sapiens) (UniProt O94782)
# Assay: Inhibitors of USP1/UAF1: Primary Screen; further: nearly all actives have a fitted effect of over 60% in size
# Conditions: recombinant USP1/UAF1, Ub-Rhodamine cleavage fluorescence; at 57.1 µM (top of the series)
# Excerpt: Deubiquitinating enzymes (DUBs) are a class of enzymes that can cleave isopeptide bond formed between the C-terminal carboxylate of ubiquitin and a lysine side-chain amino group on the target protein. Among them, ubiquitin specific proteases (USPs) constitute the largest DUB family. Human USPs are emerging as promising targets for pharmacological intervention because of their connection to a number of human diseases, including prostate, colon and breast cancer (1, 2), pediatric acute lymphoblastic leukemia (3), and familial cylindromatosis (4). The advantage of inhibiting USPs lies in the potential specificity of therapeutic intervention that can lead to better efficacy and reduce nonspecific side effects. In a collaboration between the University of Delaware and the NIH Chemical Genomics Center, a high-throughput screen assay was developed to screen for USP1/UAF1 inhibitors. This miniaturized assay has a fluorescent read-out and is used to screen the NIH Molecular Libraries Small Molecule Repository (MLSMR) in order to identify a small molecule that inhibits USP1. NIH Chemical Genomics Center [NCGC] NIH Molecular Libraries Probe Centers Network [MLPCN] MLPCN Grant: DA030552 Assay Submitter (PI): Zhihao Zhuang, University of Delaware 1. Priolo, C., et al. (2006) The isopeptidase USP2a protects human prostate cancer from apoptosis. Cancer Res 66, 8625-8632 2. Popov, N., et al. (2007) The ubiquitin-specific protease USP28 is required for MYC stability. Nat Cell Biol 9, 765-774 3. De Pitta, C., et al. (2005) A leukemia-enriched cDNA microarray platform identifies new transcripts with relevance to the biology of pediatric acute lymphoblastic leukemia. Haematologica 90, 890-898 4. Kovalenko, A., et al. (2003) The tumour suppressor CYLD negatively regulates NF-kappaB signalling by deubiquitination. Nature 424, 801-805
# 3 microliters of reagents (buffer in columns 3 and 4 as negative control and 1nM USP1/UAF1 complex in columns 1, 2, and 5-48) are dispensed into Greiner black solid bottom 1536-well assay plates. Compounds are then transferred via Kalypsys pin tool equipped with 1536-pin array (10nl slotted pins, V&P Scientific, San Diego, CA). Following an incubation step of 15 min at room temperature, 1ul of Ub-Rho substrate (150nM final concentration) is added to initiate the reaction. The plates are immediately centrifuged at 1000 rpm for 15 seconds, and subsequently transferred to a ViewLux high-throughput CCD imager (PerkinElmer) wherein kinetic measurements of fluorescence are acquired using 480 nm excitation/540 nm emission filter set (6 reads every 60 seconds, see Table 1). All reagents are diluted in an assay buffer consisting of 50mM HEPES (pH 7.8), 0.5mM EDTA, 0.1 mg/ml BSA, 1mM TCEP, and 0.01% Tween-20.
# On the % scale 0 is the no-effect control and ±100 the full control effect.
row,Compound,"activity change, negative = inhibition"
1,CC(C)Oc1ccc(C(=O)NCC2(N(C)C)CCCCC2)cc1,inactive: 13.5%
2,O=C(OCCN1CCCC1)C(O)(c1ccccc1)c1ccccc1,inactive: -15.8%
3,CN(C)c1cccc(C(=O)NCC2(N(C)C)CCCCC2)c1,inactive: -9.45%
4,C=C(C)C#CC(O)(C(=O)OC1CCN(C)CC1)c1ccccc1 (stereo not given),inactive: -23.4%
5,COc1cc(C(=O)NCC2(N(C)C)CCCCC2)cc(OC)c1OC,inactive: -6.37%
6,COc1ccc(Br)c(C(=O)NCC2(N3CCCCC3)CCCCC2)c1,inactive: -4.85%
7,CC(C)COc1ccc(C(=O)NCC2(N(C)C)CCCCC2)cc1,inactive: -16.3%
8,COc1cccc(C(=O)NCC2(N3CCOCC3)CCCCC2)c1,inactive: -18%
9,O=C(OC1CN2CCC1CC2)C(CO)(c1ccccc1)c1ccccc1 (stereo not given),inactive: 3.98%
10,O=C(NCC1(N2CCCCC2)CCCCC1)c1cccc(Cl)c1,inactive: -3.19%
11,COc1cccc(C(=O)NCC2(N3CCCCC3)CCCCC2)c1,inactive: -6.48%
12,COc1ccc(Cl)cc1C(=O)NCC1(N(C)C)CCCCC1,inactive: -7.83%
13,COc1ccc(C(=O)NCC2(N(C)C)CCCCC2)cc1Cl,inactive: -3.31%
14,COc1cc(C(=O)NCC2(N(C)C)CCCCC2)c([N+](=O)[O-])cc1OC,inactive: -6.55%
15,CN(C)C1(CNC(=O)c2ccc(Br)cc2)CCCCC1,inactive: -13.8%
16,COc1ccc(C(=O)NCC2(N(C)C)CCCCC2)cc1,inactive: -6.4%
17,CCOc1cccc(C(=O)NCC2(N(C)C)CCCCC2)c1,inactive: -16.3%
18,Cc1cc(C(=O)NCC2(N3CCCCC3)CCCCC2)ccc1[N+](=O)[O-],inactive: -22.5%

row,Compound,"activity change, negative = inhibition"
1,CCN1CCCC(OC(=O)C2(O)c3ccccc3C=Cc3ccccc32)C1 (stereo not given),inactive: -8.79%
2,O=C(NCC1(N2CCCCC2)CCCCC1)c1cccc(Br)c1,inactive: -24.2%
3,C=CCN1CCN(CCOC(=O)C(O)(c2ccccc2)c2ccccc2)CC1,inactive: -11.4%
4,O=C(NCC1(N2CCCCC2)CCCCC1)c1cc(F)c(F)cc1Cl,inactive: -21.1%
5,CCCCOc1ccccc1C(=O)NCC1(N(C)C)CCCCC1,inactive: -29.5%
6,CN(C)C1(CNC(=O)c2ccccc2[N+](=O)[O-])CCCCC1,inactive: -17%
7,Cc1ccccc1C(=O)NCC1(N2CCCCC2)CCCCC1,inactive: -16.2%
8,CN(C)C1CCCC1OC(=O)C(O)(c1ccccc1)c1ccccc1 (stereo not given),inactive: -18.8%
9,CN(C)c1ccc(C(=O)NCC2(N(C)C)CCCCC2)cc1,inactive: -3%
10,Cc1ccc(C(=O)NCC2(N3CCCCC3)CCCCC2)cc1,inactive: 2.73%
11,CN(C)C1(CNC(=O)c2ccccc2F)CCCCC1,inactive: -26.9%
12,CN(C)C1(CNC(=O)c2cccc(Cl)c2)CCCCC1,inactive: -14.1%
13,CCN(CC)CC(C)C(C)OC(=O)C(O)(c1ccccc1)c1ccccc1 (stereo not given),inactive: -3.19%
14,COc1cc(SC)ccc1C(=O)NCC1(N(C)C)CCCCC1,inactive: -3.73%
15,CC(C)N1C(=O)CC2(CCN(CCOC(=O)C(O)(c3ccccc3)c3ccccc3)CC2)C1=O,inactive: -8.4%
16,CN1[C@@H]2CC[C@H]1CC(OC(=O)C(O)(c1ccccc1)c1ccccc1)C2 (stereo not given in full),inactive: -13%
17,O=C(NCC1(N2CCCCC2)CCCCC1)c1cc([N+](=O)[O-])ccc1Cl,inactive: -11.2%
